These are literature values, as cited in PMC3823235 (Biochemistry, 2013).

This series addresses T1, recombinant hGAR Tfase (Homo sapiens, UniProt P22102).
T1 sequence (P22102 808-1010): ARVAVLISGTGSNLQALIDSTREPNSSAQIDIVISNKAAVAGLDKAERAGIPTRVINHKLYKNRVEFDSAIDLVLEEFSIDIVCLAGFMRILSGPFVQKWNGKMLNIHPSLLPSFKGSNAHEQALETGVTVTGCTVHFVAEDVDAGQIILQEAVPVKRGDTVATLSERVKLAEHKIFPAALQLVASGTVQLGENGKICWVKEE
Conditions: read-out: Ki, hGAR Tfase; diastereomer mixture; cited from earlier work.

By Ki is commonly meant a dissociation constant, usually derived from enzyme kinetics or from competition with a known ligand. As for 10R/S-methylthio-DDACTHF [compound 6], the Ki was 250 nM.
